Reference: patent EP4314010B1, “MODIFIED PEPTIDOMIMETICS AND METHODS OF USE” (dated 2026)

The chains behind the UniProt entries cited, without tags or fusion partners. Residues count along the entry.
UniProt P08246, 30-267 limits assumed: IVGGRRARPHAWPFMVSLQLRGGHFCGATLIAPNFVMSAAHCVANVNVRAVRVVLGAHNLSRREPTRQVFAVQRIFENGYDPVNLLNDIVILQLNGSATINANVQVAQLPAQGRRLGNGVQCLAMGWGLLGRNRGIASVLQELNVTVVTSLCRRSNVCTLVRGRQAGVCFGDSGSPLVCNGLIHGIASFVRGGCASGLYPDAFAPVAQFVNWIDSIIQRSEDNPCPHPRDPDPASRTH

Experiments:
[1] = test system: HEK293T cells; assay: Cytoplasmic Ca2+ (Fluo-4) in HEK293T cells incubated with ELD peptides; details: 2 hours with Fluo-4 plus or minus peptide, compared to a control scrambled peptide
Description: (§1) HEK293T cells were plated and incubated for 2 hours with Fluo-4 plus or minus ELD peptides, with fluorescent images taken every 30 seconds for 2-6 minutes at excitation/emission wavelengths of 488/530 nm. […] Candidate peptides ELD604 (not claimed), 607 (claimed), 601 (not claimed), and 100 (reference) were tested for resistance against protease degradation, wherein the peptides were incubated with neutrophil elastase, treated with the elastase inhibitor sivelestat at various timepoints to halt ongoing reactions, and then analyzed by HPLC (FIG. 9).

[2] = target: neutrophil elastase (Homo sapiens, UniProt P08246); assay: Neutrophil elastase degradation, stopped with sivelestat, HPLC; details: incubated with neutrophil elastase
Description: as §1
These peptides were not degraded by trypsin. Neutrophil elastase, which is one of the major proteases in the CF lung, was also tested. ELD601 was the shortest peptides generated and lacked valines, which are a substrate for neutrophil elastase. Also made was ELD604 (not claimed), which is ELD601 flanked with D-alanines to prevent exoproteases. […] Despite lacking valines, ELD601 was still degraded by elastase.
Endogenous Orai1/store operated Ca^2+ influx have been extensively studied in HEK293T cells, so this cell type was used to understand ELD607-Orai1 interactions. […] Thapsigargin is a SERCA pump inhibitor that prevents uptake of cytosolic Ca^2+ into the endoplasmic reticulum. Thapsigargin is commonly used to stimulate Orai1/store operated Ca^2+ influx. […]

Substance: a-HDIVNMLIH-a
- cytoplasmic Ca^2+ [1]: reduced cytoplasmic calcium levels
- resistance to neutrophil elastase degradation [2]: significantly more stable

Substance: n-VHDIVNMLIHG-n
- cytoplasmic Ca^2+ [1]: reduced cytoplasmic calcium levels
